Measured values published in ChEMBL document CHEMBL5032500, “Adenosine A2AR/A1R Antagonists Enabling Additional H3R Antagonism for the Treatment of Parkinson's Disease” (J Med Chem, 2021).

Protein sequences, listed by entry. Tags and fused reporters are not part of them. Lines headed by an entry give the natural chain unless they say otherwise; changes in a name come on top.
UniProt Q9Y5N1: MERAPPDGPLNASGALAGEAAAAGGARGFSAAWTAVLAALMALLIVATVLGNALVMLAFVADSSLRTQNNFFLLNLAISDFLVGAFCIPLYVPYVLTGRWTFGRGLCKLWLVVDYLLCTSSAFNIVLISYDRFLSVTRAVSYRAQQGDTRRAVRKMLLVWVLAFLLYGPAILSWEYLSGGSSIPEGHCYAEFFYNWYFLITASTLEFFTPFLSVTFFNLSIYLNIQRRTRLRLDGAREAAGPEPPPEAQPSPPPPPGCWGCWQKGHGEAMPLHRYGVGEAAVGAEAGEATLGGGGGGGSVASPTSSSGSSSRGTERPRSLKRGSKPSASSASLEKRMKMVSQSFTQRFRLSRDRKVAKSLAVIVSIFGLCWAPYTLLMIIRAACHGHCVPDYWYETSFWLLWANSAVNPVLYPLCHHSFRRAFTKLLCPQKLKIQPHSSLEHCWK

Target: Histamine H3 receptor (Homo sapiens, UniProt Q9Y5N1)
Test: Displacement of [3H] N-alpha methylhistamine from human recombinant histamine H3 receptor expressed in HEK293 cells measured after 90 mins
Format: cell-based

Ki: 224 nM
SMILES: O=C(c1ccc(OCCCc2cnc[nH]2)cc1)C1CC1 [CIPROXIFAN]
